This is an account of results in US8785396B2, “Method and composition for treating migraines” (Mannkind Corporation, priority 2007, dated 2014).

Series [1] relates to patients diagnosed with type 2 diabetes. In words: Meal challenge study in type 2 diabetes patients: GLP-1 levels, insulin, glucose, gastric emptying. The series is classed as in vivo, human. The method, then: Period 2 was performed after completion of Period 1.
The conditions of series [2]: stated as general property; cited from earlier work.
A short description of series [3]: Oxyntomodulin pharmacokinetics in rats after pulmonary insufflation of oxyntomodulin/FDKP powder. The series is classed as in vivo, rat.
The next series deals with carotid vasodilation. As to conditions: regardless of the route of administration, anesthetized dogs.
Series [4] can be described thus: Sumatriptan pharmacokinetics in female Sprague Dawley rats. The conditions noted are these: for Cmax: dose-normalized.

As to exenatide [reference compound], the “GLP-1 levels in blood” value in series [1] (10 μg exenatide by subcutaneous injection) was “no measurable levels of GLP-1”. Further, the “gastric emptying versus controls” value in series [1] (10 μg exenatide subcutaneous) is “significant delay or inhibition in gastric emptying”.
As to glucagon-like peptide 1 [GLP-1], the “half-life of GLP-1” value in series [2] was 1 to 2 min. The “GLP-1 levels in blood” value in series [1] (1.5 mg of GLP-1 in FDKP, inhaled, fed or fasted) was “significantly higher levels of GLP-1”.
In the case of oxyntomodulin, the maximal plasma concentration in series [3] (rats receiving 1.5 mg) was 311 µg/mL; in series [3] (rats receiving 3 mg), 660 µg/mL.
Consider sumatriptan, for which, in the series on carotid vasodilation, the “Blood pressure and heart rate” value was “unaltered”. In addition, in series [4] (Group 2, IV), the t1/2 is listed as 30.4 min and the Cmax is listed as 26,719 ng/mL/mg. In series [4] (Group 3, SC), this substance had a Cmax of 2309 ng/mL/mg. The tolerability entry in series [4] (across all treatment groups, female Sprague Dawley rats) is listed as “well tolerated”.
